{"source": "patent US6362207B1", "about": "“Methods of treating viral infections with benzimidazoles” (priority 1995, dated 2002)", "system": "rhinovirus", "test": "In vitro rhinovirus model", "format": "cell-based"}
{"smiles": "c1ccc2[nH]c(-c3cscn3)nc2c1", "note": "[thiabendazole, 2-(4-thiazolyl)-1-H-benzimidazole]", "values": [{"measurement": "therapeutic index (TI), ratio of toxic dose to efficacious dose", "value": "1-2"}]}
